{
  "sequences": {"note": "Protein sequences, listed by entry. Tags and fused reporters are not part of them. Residues count along the entry.", "UniProt P03372, 281-549 G400V": "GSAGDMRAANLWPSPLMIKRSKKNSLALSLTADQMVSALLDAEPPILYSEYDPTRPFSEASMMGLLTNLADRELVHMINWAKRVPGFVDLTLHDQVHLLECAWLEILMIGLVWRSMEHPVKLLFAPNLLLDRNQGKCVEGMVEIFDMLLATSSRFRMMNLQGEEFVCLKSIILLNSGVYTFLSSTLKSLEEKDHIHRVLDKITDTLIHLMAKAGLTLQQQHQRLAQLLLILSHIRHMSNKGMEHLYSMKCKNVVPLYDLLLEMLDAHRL"},
  "source": "patent US8178654B2",
  "about": "“Estrogen receptor intramolecular folding systems, estrogen receptor intramolecular folding sensors, methods of use thereof, methods of detecting ER ligands, and methods of detecting ER agonists and antagonists” (Stanford University, priority 2006, dated 2012)",
  "target": "hER281-549 (human estrogen receptor alpha ligand binding domain amino acids 281-549) (Homo sapiens, UniProt P03372, G400V)",
  "assay": "Ligand-induced intramolecular folding split RLUC complementation, N-RLUC-hER281-549-C-RLUC in transfected cells",
  "conditions": "1 μM ligand, 18 hours",
  "data": [
    {"smiles": "C[C@]12CC[C@@H]3c4ccc(O)cc4C[C@@H](CCCCCCCCC[S+]([O-])CCCC(F)(F)C(F)(F)F)[C@H]3[C@@H]1CC[C@@H]2O", "note": "(stereo partly shown) [ICI182,780]", "values": [
      {"measurement": "ligand-induced RLUC complementation signal (in words)", "value": "not similar to either antagonists or agonists"}
    ]}
  ]
}
